The values that follow are results of earlier work, collected in patent US5861405A, “S-substituted 1,3,7-trialkyl-xanthine derivatives” (priority 1994, dated 1999).

In this data set the test system is A2 receptors. To be noted: background; cited from earlier work.

As to `C#CCn1c(=O)c2c(ncn2C)n(C)c1=O` [DMPX, 3,7-dimethyl-1-propargylxanthine], the “A2 selectivity, in words” value is “A2 -selective but by less than one order of magnitude”.
